Assay results from US6607723B1, “Methods and compositions for attenuating antibody-mediated xenograft rejection in human recipients” (priority 1991, dated 2003).

System: pig kidney cell line (LLC-PK1)
Assay: Chromium release assay, plasma incubated with soluble carbohydrate haptens
Type: cell-based
Details: for cytotoxic activity of plasma incubated with hapten: not heat inactivated

αGal(1-3)βGal(1-4)βGlc-O—(CH2)COOCH3 [linear B type 6X-Y]
cytotoxic effect of antibodies to the pig cell line (heat inactivated human plasma (O and A), 1 ml incubated overnight at 4° C. with 0.215 g hapten, FIGS. 8A and 8B): completely inhibited | cytotoxic activity of plasma incubated with hapten (human plasma A, B, O and AB, FIG. 9): significantly reduced | cytotoxic activity of plasma incubated with hapten (two different AB human plasma types, FIG. 10): reduced the cytotoxic activity in one plasma type, but not the other
